The experiment concerns the target T1, Adenosine receptor A2b (Homo sapiens, UniProt P29275).
T1 sequence (P29275 whole entry): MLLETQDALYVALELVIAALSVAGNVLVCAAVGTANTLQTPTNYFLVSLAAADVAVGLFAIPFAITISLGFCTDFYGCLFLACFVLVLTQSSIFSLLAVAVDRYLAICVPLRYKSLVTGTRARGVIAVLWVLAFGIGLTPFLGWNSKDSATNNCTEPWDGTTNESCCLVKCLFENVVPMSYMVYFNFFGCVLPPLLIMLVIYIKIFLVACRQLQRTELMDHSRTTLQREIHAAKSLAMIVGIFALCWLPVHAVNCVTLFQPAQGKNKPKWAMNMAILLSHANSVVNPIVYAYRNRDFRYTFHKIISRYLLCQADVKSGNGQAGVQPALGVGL

As for `Nc1nc2ccc(Cl)cc2c2nc(-c3ccco3)nn12`, the affinity corresponds to a Ki of 44 nM.
